Data as given in paper PMC2737085.

Biological target: RPA heterotrimer with ΔN-RPA1 (RPA1 lacking amino acids 1-168) (UniProt P27694)
Assay: co-IP

- percent decrease in binding against RPA: 97%
Substance: MRE11/RAD50/NBS1 (MRN) complex, P49959 1-708; Q92878 1-1312; O60934 1-754
